The record followed here is patent US20140057798A1, “PREDICTION OF DRUG SENSITIVITY OF LUNG TUMORS BASED ON MOLECULAR GENETIC SIGNATURES” (NESTEC S.A., priority 2011, published 2014).

The subject of assay [1] is H1975 cells. The following applies: H1975, 0.1 μM and 1 μM, two weeks, agar.
Assay [2] concerns H1650 cells. The following applies: H1650, 0.1 μM and 1 μM, two weeks, agar.

On to `CN(C)C/C=C/C(=O)Nc1cc2c(Nc3ccc(F)c(Cl)c3)ncnc2cc1O[C@H]1CCOC1` [BIBW-2992], for which the “reduction of cell colony size, anchorage-independent growth” value in assay [1] and in assay [2] was “reduction of cell colony size formation” in each case.
